BindingDB's records for 20430631

Protein sequences, listed by entry. Tags and fused reporters are not part of them. Residues count along the entry.
UniProt P00915, 2-261 limits assumed: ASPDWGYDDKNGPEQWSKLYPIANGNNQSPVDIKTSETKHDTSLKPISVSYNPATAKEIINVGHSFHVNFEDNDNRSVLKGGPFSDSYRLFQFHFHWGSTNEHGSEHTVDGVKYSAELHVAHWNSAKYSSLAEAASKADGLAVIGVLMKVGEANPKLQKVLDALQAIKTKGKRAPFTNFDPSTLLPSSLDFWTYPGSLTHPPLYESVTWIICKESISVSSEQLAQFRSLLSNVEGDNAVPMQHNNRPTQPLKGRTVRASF

What was measured:
[1] = target: Carbonic anhydrase 1 (Homo sapiens, UniProt P00915); experiment: Uncompetitive inhibition of human carbonic anhydrase 1 esterase activity by Lineweaver-Burke plot analysis
[2] = target: T1, Carbonic anhydrase 2 (Homo sapiens, UniProt P00918); experiment: Competitive inhibition of human carbonic anhydrase 2 esterase activity by Lineweaver-Burke plot analysis
[3] = target: T1, Carbonic anhydrase 2; experiment: Uncompetitive inhibition of human carbonic anhydrase 2 esterase activity by Lineweaver-Burke plot analysis

SMILES	Ki [1]	Ki [2]	Ki [3]
O=[N+]([O-])O[C@H]1C[C@H](O)[C@@H](O[N+](=O)[O-])C[C@@H]1O	19.9 mM	0.239 mM	
O=[N+]([O-])O[C@H]1CC[C@@H](O[N+](=O)[O-])[C@H](O)[C@@H]1O	23.8 mM		0.267 mM
O=[N+]([O-])O[C@H]1C[C@H](O[N+](=O)[O-])[C@@H](O)C[C@@H]1O	19.3 mM	0.172 mM	
